From paper doi:10.1101/2025.03.03.641346 come the findings set out here.

The assay concerns the target LH1 αβ-heterodimer of Dinoroseobacter shibae (Dinoroseobacter shibae DFL-12) (UniProt A8LQ15). Put plainly: cryo-EM structure.

For orientation: stoichiometry N means the number of molecules, sites or subunits per partner or assembly. Consider “LH1 αβ-heterodimer of Dinoroseobacter shibae (from UniProt A8LQ15 1-53; A8LQ14 1-49) (complex)”, for which the stoichiometry N stood at 17.
